The results in this text go back to patent US10030026B2, “Difluoroethylpyridine derivatives as NR2B NMDA receptor antagonists” (Rugen Holdings (Cayman) Limited, priority 2014, dated 2018).

Protein sequences, listed by entry. Tags and fused reporters are not part of them. Lines headed by an entry give the natural chain unless they say otherwise; changes in a name come on top. Residues count along the entry.
UniProt Q12879, 23-1464: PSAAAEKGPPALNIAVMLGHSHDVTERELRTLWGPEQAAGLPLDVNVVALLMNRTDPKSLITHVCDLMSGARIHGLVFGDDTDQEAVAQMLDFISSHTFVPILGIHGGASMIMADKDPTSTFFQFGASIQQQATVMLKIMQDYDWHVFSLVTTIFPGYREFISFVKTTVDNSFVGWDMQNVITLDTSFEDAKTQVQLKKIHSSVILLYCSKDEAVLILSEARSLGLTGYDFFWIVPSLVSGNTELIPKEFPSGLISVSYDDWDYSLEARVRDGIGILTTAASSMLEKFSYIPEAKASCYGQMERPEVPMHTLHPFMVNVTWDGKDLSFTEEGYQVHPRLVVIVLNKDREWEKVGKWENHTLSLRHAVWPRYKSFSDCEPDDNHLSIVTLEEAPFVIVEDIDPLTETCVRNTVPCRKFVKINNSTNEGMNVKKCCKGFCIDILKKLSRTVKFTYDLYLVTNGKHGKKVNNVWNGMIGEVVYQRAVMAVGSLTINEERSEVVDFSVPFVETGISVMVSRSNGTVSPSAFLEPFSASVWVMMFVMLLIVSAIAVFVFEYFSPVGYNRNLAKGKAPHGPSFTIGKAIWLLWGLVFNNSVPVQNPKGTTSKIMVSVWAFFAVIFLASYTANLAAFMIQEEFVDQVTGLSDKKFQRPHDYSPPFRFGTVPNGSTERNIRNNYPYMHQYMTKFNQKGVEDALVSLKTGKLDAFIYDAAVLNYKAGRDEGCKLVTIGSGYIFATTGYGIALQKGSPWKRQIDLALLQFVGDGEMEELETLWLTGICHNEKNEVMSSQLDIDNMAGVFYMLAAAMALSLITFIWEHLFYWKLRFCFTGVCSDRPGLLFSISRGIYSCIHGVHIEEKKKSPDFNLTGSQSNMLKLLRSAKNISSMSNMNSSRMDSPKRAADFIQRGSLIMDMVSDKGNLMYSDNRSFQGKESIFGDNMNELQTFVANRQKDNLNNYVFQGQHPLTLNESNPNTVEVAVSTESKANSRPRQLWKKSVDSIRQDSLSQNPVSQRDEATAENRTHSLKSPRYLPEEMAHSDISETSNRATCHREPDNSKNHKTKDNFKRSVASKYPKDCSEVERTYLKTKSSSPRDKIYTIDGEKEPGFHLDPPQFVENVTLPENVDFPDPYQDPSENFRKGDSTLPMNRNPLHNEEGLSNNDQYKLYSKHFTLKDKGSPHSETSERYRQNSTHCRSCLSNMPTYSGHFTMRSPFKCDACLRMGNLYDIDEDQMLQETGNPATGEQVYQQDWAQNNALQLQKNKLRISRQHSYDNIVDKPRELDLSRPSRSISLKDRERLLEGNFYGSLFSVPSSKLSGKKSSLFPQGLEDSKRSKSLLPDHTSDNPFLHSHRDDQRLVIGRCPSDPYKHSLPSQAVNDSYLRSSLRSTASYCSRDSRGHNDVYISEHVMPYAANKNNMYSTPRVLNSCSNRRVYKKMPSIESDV
UniProt Q13224, 27-1484: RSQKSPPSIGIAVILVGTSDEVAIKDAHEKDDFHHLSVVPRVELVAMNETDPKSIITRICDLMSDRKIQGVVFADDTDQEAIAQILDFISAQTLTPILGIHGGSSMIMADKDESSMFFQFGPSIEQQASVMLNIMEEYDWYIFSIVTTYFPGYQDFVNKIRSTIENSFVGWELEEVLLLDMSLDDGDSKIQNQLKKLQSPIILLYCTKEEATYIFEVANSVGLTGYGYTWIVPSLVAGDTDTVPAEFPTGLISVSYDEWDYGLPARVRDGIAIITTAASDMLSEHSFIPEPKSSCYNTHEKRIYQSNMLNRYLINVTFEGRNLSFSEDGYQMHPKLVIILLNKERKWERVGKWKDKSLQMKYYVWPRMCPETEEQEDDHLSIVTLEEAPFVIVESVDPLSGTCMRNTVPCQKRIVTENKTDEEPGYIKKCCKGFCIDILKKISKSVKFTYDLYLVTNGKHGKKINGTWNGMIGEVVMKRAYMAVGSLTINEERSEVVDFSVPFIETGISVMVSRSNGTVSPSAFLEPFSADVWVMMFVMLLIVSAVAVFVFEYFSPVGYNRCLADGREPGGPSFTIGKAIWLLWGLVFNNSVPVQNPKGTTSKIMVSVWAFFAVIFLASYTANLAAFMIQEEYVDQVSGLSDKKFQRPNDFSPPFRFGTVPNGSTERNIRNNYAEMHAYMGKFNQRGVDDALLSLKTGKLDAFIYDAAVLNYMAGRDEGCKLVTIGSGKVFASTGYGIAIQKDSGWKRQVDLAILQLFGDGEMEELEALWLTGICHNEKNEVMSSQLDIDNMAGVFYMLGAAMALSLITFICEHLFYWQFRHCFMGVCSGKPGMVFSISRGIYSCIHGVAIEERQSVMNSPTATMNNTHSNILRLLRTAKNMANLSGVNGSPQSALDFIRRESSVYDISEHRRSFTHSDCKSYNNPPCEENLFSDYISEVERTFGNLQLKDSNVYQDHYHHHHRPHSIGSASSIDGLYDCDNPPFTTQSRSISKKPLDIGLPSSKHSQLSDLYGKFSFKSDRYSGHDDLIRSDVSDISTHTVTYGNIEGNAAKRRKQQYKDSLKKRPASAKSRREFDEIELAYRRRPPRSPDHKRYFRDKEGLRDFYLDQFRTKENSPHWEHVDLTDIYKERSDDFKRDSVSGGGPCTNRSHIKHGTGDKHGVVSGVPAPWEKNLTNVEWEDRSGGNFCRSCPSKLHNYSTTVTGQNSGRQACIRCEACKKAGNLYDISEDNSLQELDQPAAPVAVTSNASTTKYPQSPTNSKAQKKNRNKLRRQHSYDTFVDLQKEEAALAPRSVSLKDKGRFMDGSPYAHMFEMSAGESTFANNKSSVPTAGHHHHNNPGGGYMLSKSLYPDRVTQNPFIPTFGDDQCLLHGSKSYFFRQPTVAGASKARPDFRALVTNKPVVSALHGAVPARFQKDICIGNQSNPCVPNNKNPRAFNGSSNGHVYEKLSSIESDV
UniProt P10635, whole entry: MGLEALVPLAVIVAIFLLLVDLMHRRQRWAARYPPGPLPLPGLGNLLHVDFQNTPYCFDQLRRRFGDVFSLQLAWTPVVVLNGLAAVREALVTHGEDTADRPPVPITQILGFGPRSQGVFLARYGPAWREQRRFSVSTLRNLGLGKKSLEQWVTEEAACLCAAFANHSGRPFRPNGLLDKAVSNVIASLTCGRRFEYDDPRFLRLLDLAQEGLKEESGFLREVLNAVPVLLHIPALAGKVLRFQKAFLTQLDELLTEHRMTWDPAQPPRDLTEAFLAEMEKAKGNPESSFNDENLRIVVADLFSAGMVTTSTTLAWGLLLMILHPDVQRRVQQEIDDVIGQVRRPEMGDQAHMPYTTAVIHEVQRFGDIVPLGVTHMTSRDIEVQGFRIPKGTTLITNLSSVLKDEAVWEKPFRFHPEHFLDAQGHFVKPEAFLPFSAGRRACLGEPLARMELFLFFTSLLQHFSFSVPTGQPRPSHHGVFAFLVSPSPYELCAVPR
UniProt Q12809: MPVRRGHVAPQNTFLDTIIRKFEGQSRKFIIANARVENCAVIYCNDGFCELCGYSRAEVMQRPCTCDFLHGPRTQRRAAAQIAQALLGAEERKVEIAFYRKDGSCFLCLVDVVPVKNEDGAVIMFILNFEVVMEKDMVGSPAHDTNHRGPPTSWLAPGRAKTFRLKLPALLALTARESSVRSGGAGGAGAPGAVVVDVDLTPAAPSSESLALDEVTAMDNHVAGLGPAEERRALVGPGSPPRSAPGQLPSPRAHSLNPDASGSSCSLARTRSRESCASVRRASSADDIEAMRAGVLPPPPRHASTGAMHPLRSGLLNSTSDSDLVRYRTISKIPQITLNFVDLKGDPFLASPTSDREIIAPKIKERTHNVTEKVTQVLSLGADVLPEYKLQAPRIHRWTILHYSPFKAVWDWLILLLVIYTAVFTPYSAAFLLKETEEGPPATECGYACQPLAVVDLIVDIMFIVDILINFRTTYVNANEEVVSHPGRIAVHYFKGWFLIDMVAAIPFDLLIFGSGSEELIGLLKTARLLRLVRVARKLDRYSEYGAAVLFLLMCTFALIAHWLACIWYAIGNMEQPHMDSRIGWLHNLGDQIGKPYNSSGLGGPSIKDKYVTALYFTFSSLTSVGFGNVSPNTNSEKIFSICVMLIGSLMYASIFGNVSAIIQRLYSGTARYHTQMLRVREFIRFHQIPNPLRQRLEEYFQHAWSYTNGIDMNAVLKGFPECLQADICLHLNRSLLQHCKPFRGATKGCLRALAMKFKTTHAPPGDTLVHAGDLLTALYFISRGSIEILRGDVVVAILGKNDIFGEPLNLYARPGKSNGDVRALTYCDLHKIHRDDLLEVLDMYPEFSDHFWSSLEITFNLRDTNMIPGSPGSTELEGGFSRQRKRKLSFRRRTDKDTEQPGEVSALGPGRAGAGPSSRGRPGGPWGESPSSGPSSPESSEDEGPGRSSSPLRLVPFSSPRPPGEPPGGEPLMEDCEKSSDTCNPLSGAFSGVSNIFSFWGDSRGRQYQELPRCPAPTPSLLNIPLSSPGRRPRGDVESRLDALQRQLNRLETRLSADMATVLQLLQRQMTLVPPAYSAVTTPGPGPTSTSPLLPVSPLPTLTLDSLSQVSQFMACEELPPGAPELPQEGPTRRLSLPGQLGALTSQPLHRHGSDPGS

Data set [1] concerns the target human NR1/NR2A (Homo sapiens (Human), UniProt Q05586+Q12879). Briefly: NR2A antagonist activity, Fluo-4 calcium influx assay in HEK293 cells. The class given is cell-based. Here is the method: (§1) Activation of the NR2A or NR2B subtype of NMDA receptor with glutamate as an agonist and glycine co-agonist on these cells results in calcium influx, which can be monitored with fluorescent indicator Fluo-4.
(§2) For experiments, the cells were seeded onto poly-D-lysine-coated 96-well black plates with clear bottom (Corning) at a density of ˜50,000 cells/well. After overnight culture, the growth medium was removed from the wells and the cells were incubated at 37° C. for 60 min in Hanks buffer containing 4 μM fluo-4-AM (Invitrogen) and 0.1% bovine serum albumin (BSA). After dye-loading, the cells were washed three times with Hanks buffer and incubated for 10 min at room temperature with various concentrations of test compounds prepared in Hanks buffer with 0.1% BSA. The cell plates were placed onto FDSS μCell fluorescence reader (Hamamatsu). After 20 sec reading of background fluorescence, agonist glutamate at final 100 μM and co-agonist glycine at final 50 μM were added to the cells to activate the receptor, and the resulting fluorescence changes were recorded and quantified.

Data set [2] addresses human NR1/NR2B (Homo sapiens (Human), UniProt Q13224). Briefly: NR2B antagonist activity, Fluo-4 calcium influx assay in HEK293 cells. The class given is cell-based. To be noted: HEK293 cells stably expressing NR2B; glutamate 100 μM, glycine 50 μM. As for the experimental part:
as §1, §2

Data set [3] concerns the target CYP2D6 (Homo sapiens (Human), UniProt P10635). The experiment in a line: CYP P450 enzyme inhibition in pooled human liver microsome.
Data set [4] deals with hERG channel (Homo sapiens (Human), UniProt Q12809). Briefly: hERG channel inhibition, whole cell patch clamp in HEK293 cells. It counts as cell-based. To be noted: hERG stably expressed in HEK293 cells. On the technique in general: Block of hERG is tested as a sign of cardiac risk.

Where two headings read alike, the source gives them in different places.

As for `FC(F)(F)Oc1ccc(C(F)(F)CN2CCC(Nc3ncnc4[nH]ncc34)CC2)nc1` [C-11], the values for the IC50 in data set [1] and in data set [2] were more than 10 µM and 0.028 µM, respectively.
`Fc1cc(C(F)(F)F)cnc1C(F)(F)CN1CCC(Nc2ncnc3[nH]ncc23)CC1` [C-18, N-(1-(2,2-difluoro-2-(3-fluoro-5-(trifluoromethyl)pyridin-2-yl)-ethyl)piperidin-4-yl)-1H-pyrazolo[3,4-d]pyrimidin-4-amine]: the IC50 in data set [3] worked out at 11.5 µM; in data set [4], 12 µM.
With `Cc1n[nH]c2ncnc(NC3CCN(CC(F)(F)c4ccc(C(F)(F)F)nc4)CC3)c12` [C-142, N-(1-(2,2-difluoro-2-(6-(trifluoromethyl)pyridin-3-yl)ethyl)piperidin-4-yl)-3-methyl-1H-pyrazolo[3,4-d]pyrimidin-4-amine], the IC50 in data set [1] (HEK293 cells stably expressing NR2A, glutamate 100 μM, glycine 50 μM, read-out: NR2A IC50) is more than 10 µM; in data set [2], 0.089 µM.

Usually IC50 stands for the concentration needed to halve the response being measured.
